solubility at 1 month, pH 3.5 (pH 3.5): remained soluble | solubility at 1 month, pH 5.0 (pH 5): insoluble
Substance: Calcium Glycerophosphate [CaGP]
